In US8354412B2, “Beta-3 receptor ligands and their use in therapy” (Universita' Degli Studi di Bari, priority 2006, dated 2013) one finds Kd data, which are given here for one compound.

By UniProt entry, the sequences of proteins in these tests, tags left out.
UniProt P08588, whole entry: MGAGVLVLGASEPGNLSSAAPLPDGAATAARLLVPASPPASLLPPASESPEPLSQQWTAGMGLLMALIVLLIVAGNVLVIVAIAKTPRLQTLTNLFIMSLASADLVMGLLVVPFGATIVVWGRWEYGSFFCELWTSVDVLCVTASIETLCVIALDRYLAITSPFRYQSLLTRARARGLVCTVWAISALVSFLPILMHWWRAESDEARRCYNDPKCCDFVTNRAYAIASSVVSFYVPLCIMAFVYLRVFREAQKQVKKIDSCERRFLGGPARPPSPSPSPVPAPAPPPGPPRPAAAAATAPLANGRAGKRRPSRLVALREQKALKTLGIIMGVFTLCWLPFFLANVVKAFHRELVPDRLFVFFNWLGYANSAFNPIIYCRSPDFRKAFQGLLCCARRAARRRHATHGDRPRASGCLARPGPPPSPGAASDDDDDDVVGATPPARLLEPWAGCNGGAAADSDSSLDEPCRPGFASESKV

The target in this experiment is T1, cloned human β1-adrenergic receptor (Homo sapiens, UniProt P08588).
T1 construct: expressed in transfected cells; host or cells: CHO (membranes)
Briefly: [3H]-dihydroalprenolol binding on CHO cell membranes, β1-adrenergic receptor. Particulars: saturation experiments on CHO membranes; read-out: KD in CHO expressing the β1-adrenergic receptor. The procedure: To verify the selectivity of the ligands (I) for the cloned human adrenergic β1- and β2 receptors, compounds 1a-1h were submitted to binding tests (Table 2). At the concentration of [^3H]-dihydroalprenolol used in the binding experiments (see biological methods section), the specific bonds represent approximately 76% and 85% of the total binding respectively. […]. […]
The preconfluence cells were washed with cold PBS, removed from the surface of the plate, collected in cold lysis buffer (10×10^6/ml; 5 mM Tris/HCl, 2 mM EDTA, pH 7.4 at 4° C.) and homogenized with a Brinkmann Polytron (5 for 3×10 secs). […] The resultant membrane pellet was resuspended in cold incubation buffer (50 mM Tris/HCl, 10 mM MgCl2, pH 7.4 for the binding experiments on the β1-adrenergic receptors; 50 mM Tris/HCl, pH 7.4 for the binding experiments of on the β2-adrenergic receptors) and its protein content was then determined. […]
The saturation experiments were conducted by incubating the cell membranes (50 μg of protein) in 500 μl of incubation buffer, containing increasing concentrations of [^3H]-dihydroalprenolol (0.1 nM, 0.5 nM, 1 nM, 3 nM, 5 nM, 10 nM). […] The residual radioactivity of the filters was measured using a Beckmann LS6500 Multi-purpose scintillator. […]

Turning to `C=CCc1ccccc1OCC(O)CNC(C)C` (stereo not shown) [alprenolol, reference compound], the equilibrium dissociation constant (Kd) (in general, a measure of binding affinity in units of concentration) is 12.5 nM.
